The test deals with NK cells. Kind of test: Functional in vivo/ex vivo NK cell assay, spleen cells, effector:target ratio 100:1. Details: species or system mice. Particulars: IL-2 group. The procedure: C57BL.backslash.6 mice are treated with 0, 50, 100, 200, and 300 mg/kg of drug (in saline) for 4 consecutive days. Blood is taken by cardiac puncture on day 5, and the lymphocytes are isolated from spleen in the following manner:
The spleen is aseptically removed and mashed by pressing against a steel strainer with a rubber plunger. The cell suspension is separated from the clumps by letting them settle at the bottom of the tube. The cell suspension is then separated on a Lymphocyte M layer and the interface is recovered and resuspended in media.
Important in immunosurveillance, NK cells are capable of lysing tumors, virus-infected or embryo-derived cells in vitro spontaneously without prior sensitization. Immunomodulators are evaluated using murine splenocytes and human peripheral blood mononuclear leukocytes.
Spleen cells were used to test for NK activity at a effector:target ratio of 100:1.

Here are results for one substance from patent publication US5980913A, “Peptides having immunomodulatory activity” (Biochem Pharma, Inc., priority 1994, dated 1999).

Regarding “IL-2: IL-2, reference set to 100% in the CTL assay and comparison group in the NK cell assay”, the “NK cell assay, % response of IL-2” value is 100.00% and the “NK cell assay, Average” value is listed as 5.22. Besides, for the setting “CTL = control”, the “NK cell assay, % response of CTL” value turned out to be 233.04%.
